Assay [1] deals with Polybromodomain-1 BromoDomain-5 (PB1-BD5) (Homo sapiens, UniProt Q86U86). As to the kind of experiment: biochemical. From the text:
IC50 measurements for inhibitors using Polybromodomain-1 BromoDomain-5 (PB1-BD5) SM TR-FRET Binding Assay

By UniProt entry, the sequences of proteins in these tests, tags left out. Residues count along the entry.
UniProt Q86U86, 645-766: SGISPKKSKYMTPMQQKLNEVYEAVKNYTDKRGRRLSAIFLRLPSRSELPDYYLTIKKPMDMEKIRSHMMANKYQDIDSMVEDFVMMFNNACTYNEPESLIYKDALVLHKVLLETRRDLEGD
UniProt P51531, 1377-1486 isoform P51531-2: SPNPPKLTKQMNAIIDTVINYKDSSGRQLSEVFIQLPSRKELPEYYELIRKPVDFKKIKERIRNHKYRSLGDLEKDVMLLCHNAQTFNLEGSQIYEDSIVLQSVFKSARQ

Assay [2] deals with BRM (Isoform 2) Bromodomain (Homo sapiens, UniProt P51531). As to the kind of experiment: biochemical. From the text:
IC50 measurements for inhibitors using BRM SM TR-FRET Binding Assay

Each structure is given as a SMILES string.

One may read the IC50 as the point on the concentration scale where inhibition reaches its midpoint. Higher therefore signals weaker potency in that assay. Turning to `CC1CN(c2cc(-c3ccccc3O)nnc2N)CCN1S(C)(=O)=O` (stereo not shown) [Example 108, 2-(6-amino-5-(3-methyl-4-(methylsulfonyl)piperazin-1-yl)pyridazin-3-yl)phenol], the IC50 in assay [1] came out at 0.0159 µM; in assay [2] it was 0.0358 µM.
In the case of `Nc1nnc(-c2ccccc2O)cc1C1CCCCC1` [Example 209, 2-(6-amino-5-cyclohexylpyridazin-3-yl)phenol], the IC50 amounted to 0.0052 µM in assay [1] and 0.0088 µM in assay [2].

(Values after patent EP3262036B1, “THERAPEUTIC PYRIDAZINE COMPOUNDS AND USES THEREOF” (priority 2015, dated 2016).)
